Assay outcomes: PubChem, several laboratories
An excerpt weighted towards active compounds, which were near 4.2% of everything screened.
MC4R antagonist = MC4R antagonists of cAMP signaling, primary screen, cell-based, TR-FRET, antagonist arm of biased-ligand search | Melanocortin receptor 4 (Homo sapiens), P32245 | MC4R-expressing cells, MTII-stimulated cAMP, LANCE TR-FRET | inhibition, % at 6.5 µM | 0.48% of 360,000 active | AID 540295, 2011;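 active = inhibition above its plate's cutoff, the mean of tested wells on that plate plus 3 SD, cut at about 29% in these data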
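Material: human MC4R-expressing U2OS cells. Probe or stimulus: Melanotan II challenge. Dosing: 6.5 µM single dose. Times: 30-min compound, 1-h challenge, 1-h detection, room temperature. Technique: TR-FRET with Eu-cAMP and labeled anti-cAMP, 671 nm. Replication: singlicate.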
MC4R ag barr = MC4R agonists recruiting beta-arrestin, primary screen, cell-based, luminescence, agonist arm of biased-ligand search; Melanocortin receptor 4 (Homo sapiens), P32245; U2OS MC4R beta-arrestin complementation; percent of melanotan II response, DMSO zero; activation, % at 8.9 µM; 0.98% of 360,000 active; AID 540308, 2011;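 active = activation above a per-plate cutoff, the mean activation of sample wells on that plate plus 3 SD, cut at about 8% in these data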
HDAC3 inhib = HDAC3 deacetylase inhibitors, primary screen, biochemical, fluorescence, cell-free homogeneous. Histone deacetylase 3 (Homo sapiens), O15379. recombinant HDAC3, fluorogenic peptide/trypsin coupled. inhibition, % at 8.3 µM. 0.15% of 320,000 active; in the data active = inhibition above about 26%, passing the limit was not always enough; inconclusive = no clear call, values can overlap the other calls
NALP1 yeast inh = NALP1 inflammasome inhibitors in reconstituted yeast, colorimetric, S. cerevisiae, triplicate retest. S. cerevisiae NALP1/ASC/caspase-1 growth, X-gal OD620, 72 h. inhibition, % at 10 µM. 0.61% of 280,000 active. AID 2071, 2009; in the data active = inhibition mostly above about 24%, no sharp cut-off; inactive = mostly below about 32%
ALR H2O2 inh = human ALR oxidase inhibition via reduced H2O2; P55789; purified ALR, DTT oxidation, H2O2 HRP-luminol luminescence; inhibition, % (concentration not given with the values); actives 3.8% (n = 290,000); AID 485317;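 active = mean and each replicate at 75% or more; inconclusive = only one of the two met; inactive = neither met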;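 note: stock transfer was 7.5 nL into about 7.5 µL; 0% = neutral wells and 100% = wells with inactivated enzyme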
UUG fidelity = yeast start codon fidelity modulation. S. cerevisiae UUG-firefly luciferase reporter, luminescence/redox ratio. activity score, % at 18.7 µM. 0.13% of 350,000 active;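 active means replicate mean at a twofold rise or more, about +100% in these data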;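 further: firefly luciferase made from a UUG start codon reports start codon fidelity; reporter light over untreated wells divided by growth signal over untreated wells; some hits fall short of that in this replicate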
Large screens that a line does not name were inactive.

Protein sequences, listed by entry. Tags and fused reporters are not part of them.
Melanocortin receptor 4 (Homo sapiens), P32245, UniProt P32245, whole entry, looked up: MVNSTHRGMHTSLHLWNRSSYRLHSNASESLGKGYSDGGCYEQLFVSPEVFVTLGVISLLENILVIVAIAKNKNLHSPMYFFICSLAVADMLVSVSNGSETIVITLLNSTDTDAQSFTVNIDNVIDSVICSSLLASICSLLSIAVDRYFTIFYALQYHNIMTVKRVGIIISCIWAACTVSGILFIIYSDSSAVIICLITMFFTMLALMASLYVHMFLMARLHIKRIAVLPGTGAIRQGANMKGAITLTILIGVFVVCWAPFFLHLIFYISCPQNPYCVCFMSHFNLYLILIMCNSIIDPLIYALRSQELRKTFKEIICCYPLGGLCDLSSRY

COc1cc(/C=C(/C#N)c2nc3ccccc3[nH]2)ccc1Oc1ncccc1[N+](=O)[O-]	MC4R ag barr 14
N#C/C(=C\c1cccs1)c1nc2ccccc2[nH]1	none (no result: ALR H2O2 inh)
CCOc1cc(/C=C(\C#N)c2nc3ccccc3[nH]2)ccc1OC(C)C(=O)O (stereo not given)	ALR H2O2 inh 98
N#C/C(=C\c1ccccc1OCC(=O)O)c1nc2ccccc2[nH]1	ALR H2O2 inh 98
C/C(=N\NC(=O)CC#N)c1cc2ccccc2oc1=O	none (no result: UUG fidelity)
C/C(=N\Nc1cccc(C(=O)O)c1)c1cc2ccccc2o1	ALR H2O2 inh 99
COc1ccc(/C(C)=N/Nc2cccc(C(=O)O)c2)cc1OC	none
C/C(=N\Nc1ccccc1)c1cc2ccccc2oc1=O	ALR H2O2 inh 93 (no result: UUG fidelity)
C/C(=N\Nc1cccc(C(=O)O)c1)c1ccc(Cl)s1	ALR H2O2 inh 98
C/C(=N\Nc1ccc(Cl)c(C(=O)O)c1)c1cc2ccccc2o1	ALR H2O2 inh 99
CO[C@H]1CN(C)C(=O)c2cc(NC(=O)C3CCC3)ccc2OC[C@@H](C)N(Cc2nccs2)C[C@H]1C	none (no result: MC4R antagonist, MC4R ag barr, HDAC3 inhib, NALP1 yeast inh, ALR H2O2 inh)
COc1ccc(S(=O)(=O)Nc2ccc3c(c2)C(=O)N([C@@H](C)CO)C[C@H](C)[C@H](CN(C)C(=O)c2ccccc2)OCCCC[C@H](C)O3)cc1	none (no result: MC4R antagonist, MC4R ag barr, HDAC3 inhib, NALP1 yeast inh, ALR H2O2 inh)
CN1c2ccc(-c3ccc(F)cc3)cc2[C@@H]2[C@@H](CCN2C(=O)Nc2ccc(F)cc2)[C@@H]1CO	none (no result: MC4R antagonist, MC4R ag barr, HDAC3 inhib, NALP1 yeast inh, ALR H2O2 inh)
CN(C)C(=O)[C@]1(CCS(=O)(=O)c2ccccc2)N=C(c2ccc(OCCCO)cc2)O[C@@H]1c1ccccc1	none (no result: MC4R antagonist, MC4R ag barr, HDAC3 inhib, NALP1 yeast inh, ALR H2O2 inh)
C[C@H]1CN([C@@H](C)CO)C(=O)c2cc(NS(=O)(=O)c3ccc(F)cc3)ccc2O[C@@H]1CN(C)Cc1ccc(Cl)c(Cl)c1	none (no result: MC4R antagonist, MC4R ag barr, HDAC3 inhib, NALP1 yeast inh, ALR H2O2 inh)
Cc1ccc(S(=O)(=O)Cc2ccc(C(=O)N3CCN(Cc4ccccc4)CC3)o2)cc1	ALR H2O2 inh 94 (no result: NALP1 yeast inh)
O=C(c1ccc(CS(=O)(=O)c2ccc(Br)cc2)o1)N1CCCC1	ALR H2O2 inh 96
COc1ccc(OC)c2c(C)cc(N3CCCN(C)CC3)nc12	ALR H2O2 inh 98
COc1ccccc1N1CCN(c2cc(N3CCCC3)nc(C)n2)CC1	ALR H2O2 inh inconclusive
CC(C)NC(=O)N(C)C[C@@H]1Oc2ccc(NC(=O)Cn3cnnn3)cc2CC(=O)N([C@@H](C)CO)C[C@H]1C	none (no result: MC4R antagonist, MC4R ag barr, HDAC3 inhib, NALP1 yeast inh, ALR H2O2 inh)
Cc1ccc(S(=O)(=O)c2cc3c(=O)n4ccccc4nc3n(CCc3ccccc3)c2=N)cc1	NALP1 yeast inh 32
CN1C(=O)c2cc(NC(=O)C3CCOCC3)ccc2OC[C@@H]2O[C@H](CC(=O)NC3CCCC3)CC[C@@H]21	none (no result: MC4R antagonist, MC4R ag barr, HDAC3 inhib, NALP1 yeast inh, ALR H2O2 inh)
C=C(C(=O)c1ccccc1)C(C)C(=C)C(=O)c1ccccc1	ALR H2O2 inh 87 (no result: UUG fidelity)
C=C(C(=O)c1ccccc1)C(c1ccccc1)C(C)C(=O)c1ccccc1 (stereo not given)	none (no result: UUG fidelity)
COc1cc(OC)cc(C(=O)N2CCC(N3CCN(c4ccccc4)CC3)CC2)c1	ALR H2O2 inh 82
COc1cc(/C=N/NC(=O)Cn2cnc3ccccc3c2=O)ccc1O	ALR H2O2 inh 84 (no result: NALP1 yeast inh, UUG fidelity)
Cn1c(=O)c2c(ncn2CC(=O)N/N=C/c2ccco2)n(C)c1=O	none (no result: UUG fidelity)
COc1cc(/C=N/NC(=O)Cn2cnc3c2c(=O)n(C)c(=O)n3C)ccc1O	ALR H2O2 inh 100
Cc1ccc(S(=O)(=O)Nc2cccc3c2O[C@@H](CN(C)CC2CCCCC2)[C@H](C)CN([C@H](C)CO)C3=O)cc1	none (no result: MC4R antagonist, MC4R ag barr, HDAC3 inhib, NALP1 yeast inh, ALR H2O2 inh)
O=c1oc2ccccc2c(NC2CCCCC2)c1NS(=O)(=O)c1ccc(F)cc1	none
N#Cc1cccc(S(=O)(=O)Nc2c(NC3CCCCC3)c3ccccc3oc2=O)c1	ALR H2O2 inh 98 (no result: HDAC3 inhib)
COCCN(C(=O)COC(=O)C(c1ccccc1)c1ccccc1)c1c(N)n(Cc2ccccc2)c(=O)[nH]c1=O	none (no result: NALP1 yeast inh, UUG fidelity)
CCN(C(=O)CN1CCN(c2ccccc2O)CC1)c1c(N)n(Cc2ccccc2)c(=O)[nH]c1=O	ALR H2O2 inh 98 (no result: UUG fidelity)
CCN(C(=O)CN1CCN(c2ccccc2F)CC1)c1c(N)n(Cc2ccccc2)c(=O)[nH]c1=O	none (no result: UUG fidelity)
CCCN(C(=O)CSc1n[nH]c(-c2ccc(OC)cc2)n1)c1c(N)n(Cc2ccccc2)c(=O)[nH]c1=O	ALR H2O2 inh 86 (no result: NALP1 yeast inh)
CCC(C(=O)OCC(=O)N(CCOC)c1c(N)n(Cc2ccccc2)c(=O)[nH]c1=O)c1ccccc1 (stereo not given)	NALP1 yeast inh 33
N#C[C@@H]1N[C@@H](CO)[C@H]1c1ccc(C#Cc2ccc(F)cc2)cc1	none (no result: MC4R antagonist, MC4R ag barr, HDAC3 inhib, NALP1 yeast inh, ALR H2O2 inh)
COc1ccc(NC2=C(C(C)=O)C(c3ccc(N(C)C)cc3)C(C(C)=O)C(C)(O)C2)cc1 (stereo not given)	ALR H2O2 inh 91 (no result: UUG fidelity)
COc1ccc(NC2=C(C(C)=O)C(c3ccc(OC)cc3)C(C(C)=O)C(C)(O)C2)cc1 (stereo not given)	HDAC3 inhib inconclusive
CCOc1ccc(Oc2c(C)oc3cc(O)ccc3c2=O)cc1	NALP1 yeast inh 25
CCc1nnc(N/N=C/c2c(C)[nH]c3ccccc23)n1N	ALR H2O2 inh 99 (no result: UUG fidelity)
Cc1[nH]c2ccccc2c1/C=N/NC(N)=S	none (no result: ALR H2O2 inh, UUG fidelity)
COc1ccc(/C=N/NS(=O)(=O)c2ccc(F)cc2)cc1CN1CCSCC1	NALP1 yeast inh 30
CCc1nnc(NC(=O)CSc2nnc(Cc3cc(=O)[nH]c(=O)[nH]3)n2-c2cccc(OC)c2)s1	ALR H2O2 inh 96 (no result: UUG fidelity)
CCc1nnc(NC(=O)CSc2nnc(Cc3cc(=O)[nH]c(=O)[nH]3)n2-c2ccc(OC)cc2)s1	none
Cc1cc(C)c(Cc2c(C)nc3c(C(=O)NCc4ccco4)cnn3c2C)c(C)c1	NALP1 yeast inh 42 (no result: UUG fidelity)
O=C(NCc1ccco1)c1cnn2c(C(F)F)cc(-c3ccccc3)nc12	none
O=C(Nc1nncs1)c1cc(-c2ccncc2)nc2ccc(Cl)cc12	NALP1 yeast inh 27
COc1cc(-c2nnc(SCc3cc(=O)oc4cc(O)c(O)cc34)o2)cc(OC)c1OC	NALP1 yeast inh 45 (no result: ALR H2O2 inh)
O=C(CC1C(=O)Nc2ccccc2N1CC(=O)N1CCCC1)Nc1ccc(Br)cc1 (stereo not given)	ALR H2O2 inh 98 (no result: NALP1 yeast inh)
COc1ccc([N+](=O)[O-])c(S(=O)(=O)c2ccc(Cl)cc2)n1	ALR H2O2 inh 75
COc1nc(OC)nc(Oc2ccc(Cl)cc2[N+](=O)[O-])n1	none (no result: UUG fidelity)
CCCCNC(=O)CC1N=C2c3ccccc3N=C(SCC(=O)Nc3ccccc3OC)N2C1=O (stereo not given)	none
